Measurements as given in US11124490B2, “Autotaxin inhibitors” (UNIVERSITY OF TENNESSEE RESEARCH FOUNDATION, priority 2016, dated 2021).

The chains behind the UniProt entries cited, without tags or fusion partners.
UniProt Q92633, whole entry: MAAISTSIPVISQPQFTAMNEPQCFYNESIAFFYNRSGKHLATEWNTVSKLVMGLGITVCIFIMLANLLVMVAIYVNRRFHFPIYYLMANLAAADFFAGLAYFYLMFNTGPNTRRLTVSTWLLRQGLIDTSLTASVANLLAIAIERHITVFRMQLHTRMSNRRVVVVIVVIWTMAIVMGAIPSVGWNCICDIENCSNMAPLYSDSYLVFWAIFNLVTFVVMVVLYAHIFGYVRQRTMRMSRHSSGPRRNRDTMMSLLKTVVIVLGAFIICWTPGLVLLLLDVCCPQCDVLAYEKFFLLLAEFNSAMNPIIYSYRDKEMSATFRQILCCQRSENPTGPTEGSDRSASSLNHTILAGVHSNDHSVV

Molecular target: LPA1 receptor (Homo sapiens (Human), UniProt Q92633)
Test: LPA-mediated Ca2+ mobilization, LPA1 RH7777 cells

- Emax (% LPA), LPA1 RH7777 (normalized to LPA 18:1 Emax): 100.00 % LPA
- EC50 (read-out: EC50 or IC50 (μM), LPA1 RH7777, EC50 of LPA 18:1 alone): 0.08 µM
SMILES: CCCCCCCC/C=C\CCCCCCCC(=O)OCC(O)COP(=O)(O)O (centres unmarked)
